The source of these data is patent US20100267765A1, “Pharmaceutical Compositions and Methods for CCR5 Antagonists” (priority 2007, published 2010).

Type in all cases: in vivo, human
For one data set, the system named is fasting lipid parameters. The experiment in a line: MERIT study: fasting lipoprotein profile (total cholesterol, HDL, LDL, triglycerides). The conditions noted are these: maraviroc+Combivir, 48 weeks. From the text: (§1) The MERIT study design included a fasting metabolic assessment at baseline and at Weeks 24 and 48 or at early study discontinuation, to evaluate the fasted lipid values in the MERIT study and their potential effect on cardiovascular risk.
(§2) For a 50% smoking rate scenario (which approximates to the smoking rate seen in the DAD Study-Friis-Møller N, et al. N Engl J Med 2003; 349:1993-2003), smoking status (yes/no) was randomly imputed to the study population 500 times, by sampling from a binomial distribution with a probability of success of 0.5. Smoking status was assumed to remain constant for the duration of the study.

The nature of data set [1]: MERIT study: 10-year coronary heart disease risk by Framingham equation. The conditions noted are these: with Combivir.
Source text: as §2

The test system of a further data set is LDL cholesterol. The experiment in a line: MERIT study: on-treatment fasting LDL cholesterol vs NCEP cutpoints. The conditions noted are these: with Combivir.
Source text: as §1, §2

[2] abbreviates: patients already above threshold at baseline excluded, P<0.0001.

“(N-{(1S)-3-[3-isopropyl-5-methyl-4H-1,2,4-triazole-4-yl]-exo-8-azabicyclo[3.2.1]oct-8-yl}-1-phenylpropyl)-4,4-difluorocyclohexanecarboxamide) [maraviroc]”: in the data set with fasting lipid parameters, the “Impact on lipid profiles” value was “no negative impact on lipid profiles”. For the same substance, the “Absolute CHD 10-year risk (mean [SD])” value in data set [1] (Week 24, simulated smoking rate 50%) is 2.1%. The “Absolute CHD 10-year risk (mean [SD])” value in data set [1] (Week 48, simulated smoking rate 50%) is recorded as 2.2%. Further, the “Number of patients who initiated LDL-lowering therapy during the study” value in the data set on LDL cholesterol is listed as “three”. Also, the “Relation of change in LDL cholesterol to baseline LDL cholesterol” value in the data set with LDL cholesterol (FIG. 2b) is on record as “inversely related”. For the same substance, in the data set with LDL cholesterol (P=0.007), the “Patients with high on-treatment LDL cholesterol level (≧160 mg/dL) at both Week 24 and Week 48 (%)” value is on record as 0.3%; the “Patients with high on-treatment LDL cholesterol level (≧160 mg/dL) at both Week 24 and Week 48 (n/N)” value was 1/336. Moreover, in the data set on LDL cholesterol (setting [2]), the “Patients who developed LDL cholesterol levels during the study that were ≧160 mg/dL (%)” value was 0.9% and the “Patients who developed LDL cholesterol levels during the study that were ≧160 mg/dL (n/N)” value is listed as 3/336.
